Experimental data from US20250353891A1 (MEDIMMUNE LIMITED, priority 2022, published 2025).

Amino acid sequences for entries named in this document (tags omitted). Residues count along the entry.
UniProt P47871, 26-477: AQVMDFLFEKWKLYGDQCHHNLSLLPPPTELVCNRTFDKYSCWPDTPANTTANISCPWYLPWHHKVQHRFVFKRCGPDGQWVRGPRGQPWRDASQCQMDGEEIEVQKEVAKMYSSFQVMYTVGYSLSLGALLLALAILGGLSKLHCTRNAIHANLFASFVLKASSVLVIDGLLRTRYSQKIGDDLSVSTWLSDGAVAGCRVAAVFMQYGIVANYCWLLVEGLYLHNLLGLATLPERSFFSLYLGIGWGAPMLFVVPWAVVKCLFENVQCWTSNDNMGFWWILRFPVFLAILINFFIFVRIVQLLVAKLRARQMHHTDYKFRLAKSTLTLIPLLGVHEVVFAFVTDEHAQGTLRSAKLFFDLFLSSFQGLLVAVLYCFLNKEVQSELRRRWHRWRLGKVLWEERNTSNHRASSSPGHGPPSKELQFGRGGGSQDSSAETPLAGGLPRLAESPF
UniProt P43220, 24-463: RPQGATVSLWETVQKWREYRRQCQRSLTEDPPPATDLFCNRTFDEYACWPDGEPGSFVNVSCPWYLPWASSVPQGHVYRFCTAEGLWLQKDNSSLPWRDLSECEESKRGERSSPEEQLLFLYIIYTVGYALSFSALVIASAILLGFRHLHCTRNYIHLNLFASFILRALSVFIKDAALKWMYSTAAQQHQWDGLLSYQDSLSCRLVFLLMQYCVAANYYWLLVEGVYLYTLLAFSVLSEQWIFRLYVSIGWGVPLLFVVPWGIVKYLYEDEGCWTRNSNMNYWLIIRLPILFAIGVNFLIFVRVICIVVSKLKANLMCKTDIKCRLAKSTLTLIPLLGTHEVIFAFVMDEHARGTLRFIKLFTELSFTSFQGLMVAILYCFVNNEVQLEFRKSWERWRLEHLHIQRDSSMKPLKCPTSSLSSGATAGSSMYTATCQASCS

Key:
[1] = molecular target: human glucagon receptor (hGCGR) (Homo sapiens, UniProt P47871); test: cAMP production (HTRF) in CHO cells expressing hGCGR; type: cell-based; parameters: expressed in transfected cells; settings: hGluc-R EC50 (pM), 0.1% BSA, geometric mean
Procedure: (§1) Cells were re-suspended in assay buffer at a batch-dependent optimized concentration (typically hGLP-1R cells at 1×10^5 cells/mL, hGCGR cells at 2×10^5 cells/mL).
(§2) Cells were added to the assay plate using a multidrop dispenser and incubated at room temperature for 30 minutes before measuring the cAMP level using a cAMP dynamic 2 homogeneous time resolved Fluorescence (HTRF) kit (Cisbio Bioassays #62AM4PEJ) following the two-step protocol as per manufacturer's recommendations. In brief, anti-cAMP cryptate (donor fluorophore) and cAMP-d2 (acceptor fluorophore) were made up separately by diluting each 1 in 20 in conjugate and lysis buffer provided in the kit. Anti-CAMP cryptate was added to all wells of the assay plate, followed by cAMP-d2 added to all wells except non-specific binding (NSB) wells (to which conjugate and lysis buffer was added).
(§3) Data was transformed to % Delta F as described in the manufacturer's guidelines and analyzed by 4-parameter logistic fit to determine EC50 values.

[2] = molecular target: human GLP-1 receptor (hGLP-1R) (Homo sapiens, UniProt P43220); test: cAMP production (HTRF) in CHO cells expressing hGLP-1R; type: cell-based; parameters: expressed in transfected cells; settings: for % Relative Potency Ratio: % GLP-1R activity relative to GLP-1 / % GlucR activity relative to glucagon
Procedure: as §1, §2, §3

SMILES: CC[C@H](C)[C@H](NC(=O)[C@H](Cc1c[nH]c2ccccc12)NC(=O)[C@H](CCCCNC(=O)COCCOCCNC(=O)COCCOCCNC(=O)CC[C@H](NC(=O)CCCCCCCCCCCCCCCCC(=O)O)C(=O)O)NC(=O)[C@@H](NC(=O)[C@H](Cc1ccccc1)NC(=O)[C@H](CC(=O)O)NC(=O)[C@H](CCC(N)=O)NC(=O)[C@H](C)NC(=O)[C@H](C)NC(=O)[C@H](CCC(N)=O)NC(=O)[C@H](CO)NC(=O)[C@H](CC(=O)O)NC(=O)[C@H](CC(C)C)NC(=O)[C@](C)(Cc1ccccc1)NC(=O)[C@H](CCCCN)NC(=O)[C@H](CO)NC(=O)[C@@H](NC(=O)[C@H](CC(=O)O)NC(=O)[C@H](CO)NC(=O)[C@@H](NC(=O)[C@H](Cc1ccccc1)NC(=O)[C@@H](NC(=O)CNC(=O)[C@H](Cc1c[nH]cn1)NC(=O)C(C)(C)NC(=O)[C@@H](N)Cc1c[nH]cn1)[C@@H](C)O)[C@@H](C)O)C(C)C)C(C)C)C(=O)N[C@@H](C)C(=O)N[C@@H](CC(N)=O)C(=O)N[C@H](C(N)=O)[C@@H](C)O [Peptide 345]
- EC50 [1]: 168 pM
- % Relative Potency Ratio [2]: 0.1
- EC50 ([2]; hGLP-1R EC50 (pM)): 2860 pM

SMILES: CCCCCCCCCCCCCCCCCC(=O)N[C@@H](CCC(=O)N[C@@H](CCC(=O)NCCOCCOCCC(=O)NCCOCCOCCC(=O)NCCCC[C@H](NC(=O)[C@H](CC(=O)O)NC(=O)[C@H](CO)NC(=O)[C@@H](NC(=O)[C@](C)(Cc1ccccc1)NC(=O)[C@H](CO)NC(=O)CNC(=O)[C@H](CCC(N)=O)NC(=O)[C@H](CO)NC(=O)[C@@H](N)Cc1c[nH]cn1)[C@@H](C)O)C(=O)N[C@@H](CO)C(=O)N[C@@H](CCCCN)C(=O)N[C@H](C(=O)N[C@@H](CC(C)C)C(=O)N[C@@H](CC(=O)O)C(=O)N[C@@H](CO)C(=O)N[C@H](C(=O)N[C@@H](C)C(=O)N[C@@H](C)C(=O)N[C@@H](CCC(N)=O)C(=O)N[C@@H](CC(=O)O)C(=O)N[C@@](C)(Cc1ccccc1)C(=O)N[C@H](C(=O)N[C@@H](CCC(=O)O)C(=O)N[C@@H](Cc1c[nH]cn1)C(=O)N[C@@H](CC(C)C)C(=O)N[C@@H](C)C(=O)N[C@@H](CC(N)=O)C(=O)N[C@H](C(N)=O)[C@@H](C)O)C(C)C)C(C)(C)CCNC(=N)N)C(c1ccccc1)c1ccccc1)C(=O)O)C(=O)O [Peptide 397]
- % Relative Potency Ratio [2]: 3.7

SMILES: CCCCCCCCCCCCCCCCCC(=O)N[C@@H](CCC(=O)N[C@@H](CCC(=O)NCCOCCOCCC(=O)NCCOCCOCCC(=O)NCCCC[C@H](NC(=O)[C@H](CC(=O)O)NC(=O)[C@H](CO)NC(=O)[C@@H](NC(=O)[C@](C)(Cc1ccccc1)NC(=O)[C@H](CO)NC(=O)CNC(=O)[C@H](CCC(N)=O)NC(=O)[C@H](CO)NC(=O)[C@@H](N)Cc1c[nH]cn1)[C@@H](C)O)C(=O)N[C@@H](CO)C(=O)N[C@@H](CCCCN)C(=O)N[C@H](C(=O)N[C@@H](CC(C)C)C(=O)N[C@@H](CC(=O)O)C(=O)N[C@@H](CO)C(=O)N[C@H](C(=O)N[C@@H](C)C(=O)N[C@@H](C)C(=O)N[C@@H](CCC(N)=O)C(=O)N[C@@H](CC(=O)O)C(=O)N[C@@](C)(Cc1ccccc1)C(=O)N[C@H](C(=O)N[C@@H](CCC(=O)O)C(=O)N[C@@H](Cc1c[nH]cn1)C(=O)N[C@@H](CC(C)C)C(=O)N[C@@H](C)C(=O)N[C@@H](CC(N)=O)C(=O)N[C@H](C(N)=O)[C@@H](C)O)C(C)C)C(C)(C)CCNC(=N)N)C(c1ccccc1)c1ccccc1)C(=O)O)C(=O)O [Peptide 398, HSQGS(αMePhe)TSDK((PEG)2-(PEG)2-γE-γE-Stearoyl) 10SK(Dip)LDS(β-dimethylArg)AAQD(αMePhe)VEHLANT-amide]
- % Relative Potency Ratio [2]: 1.5
